# Source: ChEMBL document CHEMBL1156118, “Evaluation of substituted 6-arylquinazolin-4-amines as potent and selective inhibitors of cdc2-like kinases (Clk)” (Bioorg Med Chem Lett, 2009)
# By UniProt entry, the sequences of proteins in these tests, tags left out. Where a name states a change or a piece, a line headed by the entry shows the natural chain unless it says otherwise.
# UniProt Q9HAZ1: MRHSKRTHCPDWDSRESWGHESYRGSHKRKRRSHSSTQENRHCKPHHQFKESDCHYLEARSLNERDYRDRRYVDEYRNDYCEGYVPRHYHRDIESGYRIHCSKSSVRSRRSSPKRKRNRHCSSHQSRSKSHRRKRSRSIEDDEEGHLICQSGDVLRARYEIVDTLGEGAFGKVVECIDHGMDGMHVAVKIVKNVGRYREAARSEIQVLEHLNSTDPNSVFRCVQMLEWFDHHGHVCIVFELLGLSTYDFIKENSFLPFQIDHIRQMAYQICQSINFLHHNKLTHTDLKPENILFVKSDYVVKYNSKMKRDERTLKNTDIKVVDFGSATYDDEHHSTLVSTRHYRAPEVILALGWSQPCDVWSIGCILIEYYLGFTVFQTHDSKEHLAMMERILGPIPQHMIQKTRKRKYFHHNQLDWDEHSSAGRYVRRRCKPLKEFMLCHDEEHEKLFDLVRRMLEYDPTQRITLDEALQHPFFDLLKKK
# Biological target: Dual specificity protein kinase CLK4 (Homo sapiens, UniProt Q9HAZ1)
# Assay: Inhibition of Clk4
row,Structure (SMILES),IC50
1,Cc1noc(C)c1-c1ccc2ncnc(NCc3cccnc3)c2c1,891 nM
2,c1csc(CNc2ncnc3ccc(-c4ccc5c(c4)OCCO5)cc23)c1,141 nM
3,Cc1cccc(CNc2ncnc3ccc(-c4c(C)noc4C)cc23)c1,282 nM
